Tests used:
[1] = molecular target: EGFR (Homo sapiens, UniProt P00533); settings: pre-treatment with the tyrosine kinase inhibitor; Gannett et al. 1997; cited from earlier work
[2] = molecular target: T1, EGFR-ErbB2 heterodimers (Homo sapiens, UniProt P00533); settings: treatment with AG1478 alone; Arteaga et al. 1997; cited from earlier work
T1 construct: A DPC assay was performed on suspensions of A431 cells; endogenous in cells; host or cells: A431

[3] = molecular target: T1, EGFR-ErbB2 heterodimers; test: Indolinium condensation DPC assay for EGFR-ErbB2 heterodimers on A431 cells, flow cytometry; assay type: cell-based; settings: pretreated with AG1478 (1 μM, 15 min at 37° C.) prior to EGF treatment, vs untreated cells
[4] = tested on: ErbB2 overexpressing metastatic breast cancer; settings: Vogel et al. 2002; cited from earlier work

| Molecule | autophosphorylation of the cytoplasmic domain of EGFR [1] | formation of EGFR-ErbB2 heterodimers [2] | change in DPC signal for EGFR-ErbB2 heterodimer [3] | patients responding effectively to therapy [4] |
| --- | --- | --- | --- | --- |
| COc1cc2ncnc(Nc3cccc(Cl)c3)c2cc1OC [AG1478] | prevents the autophosphorylation | induce formation of EGFR-ErbB2 heterodimers | approximately three fold | – |
| Trastuzamab: anti-ErbB2, Herceptin | – | – | – | 35% |

From patent US20100159455A1, “RECEPTOR FAMILY PROFILING” (ENSEMBLE DISCOVERY, priority 2006, published 2010)
